uPA generation: blocks generation of uPA at the cell surface | cell surface uPA generation assay, qHTS | Potency, µM (highest dose often 38.3 µM), inactives show top-dose activity change, negative = inhibition, most hits filed as inhibitors | hit rate 0.31% among 330,000 | AID 540303; active = well fitted inhibition curve with a large enough effect; inconclusive = small, poorly fitted or top-dose-only effect; inactive = no such curve, though single readings can be large or run the other way; tested in mouse RAW 264.7 cells; also: potency is read from the fitted curve at half-maximal effect; % is scaled to controls: 0 for no effect and ±100 for the full control effect; nearly all actives have a fitted effect of over 55% in size
TDP1 block: inhibitors of human tyrosyl-DNA phosphodiesterase TDP1 | recombinant TDP1, AlphaScreen DNA substrate cleavage | Potency, µM (highest dose often 130 µM), for the others: top-dose activity change, negative = inhibition, actives largely listed as inhibitors | hit rate 0.28% among 350,000 | AID 485290; also: potency is read from the fitted curve at half-maximal effect; % is scaled to controls: 0 for no effect and ±100 for the full control effect; nearly all actives have a fitted effect of over 40% in size
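Compounds were preincubated with Tdp1 (1 nM final) for 15 min at room temperature before substrate (15 nM final) started a 5 min reaction; beads (10 ug/ml final) were then added for 10 min before AlphaScreen detection.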
miR-21 reporter: raises the signal of a miR-21 reporter; AID 2288; 340,000 tested, under 10 active; Potency, µM (doses to about 38.3 µM), inactives show at the top dose reporter change, positive = more light; HeLa miR-21 FLuc reporter, luciferase, 48 h; active = well fitted rising curve with a large enough effect; inconclusive = small, poorly fitted or top-dose-only effect; inactive = no such curve, though single readings can be large or run the other way;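 note: % of control where 0% means no effect; miR-21 action dims this reporter so a rising signal means less miR-21 action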
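Luminescence from a firefly luciferase reporter carrying a miR-21 binding site downstream, stably expressed under a CMV promoter in HeLa cells that make miR-21 endogenously, reports miRNA modulation after 48 h compound exposure up to approximately 40uM final.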
TDP1 cell CPT: DT40-hTDP1 cell growth loss with CPT; Potency, µM (top dose mostly 46.2 µM), for the others: at the highest dose activity change, negative = growth inhibition, hits mostly inhibitors; hit rate 12% among 420,000; chicken DT40 Tdp1-/-;hTDP1 cells + 20 nM CPT, ATP luminescence, 48 h; AID 686979; also: potency is read from the fitted curve at half-maximal effect; % is scaled to controls: 0 for no effect and ±100 for the full control effect; nearly all actives have a fitted effect of over 55% in size
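Chicken DT40 Tdp1-/- cells stably complemented with human TDP1 were seeded at 400 cells/well in medium containing 20 nM camptothecin, exposed to pin-transferred compounds, and grown at 37 °C for at least 48 hr. Viability was read as ATP luminescence.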
TDP1 cell noCPT: qHTS for Inhibitors of human tyrosyl-DNA phosphodiesterase 1 (TDP1): qHTS in cells in absence of CPT; DT40 Tdp1-/- hTDP1 cells, no CPT, ATP luminescence, 48 h; Potency, µM (highest dose often 46.2 µM), for inactives: at the top dose activity change, negative = growth inhibition, usual class: inhibitors; hit rate 15% among 420,000; also: potency is read from the fitted curve at half-maximal effect; % is scaled to controls: 0 for no effect and ±100 for the full control effect; nearly all actives have a fitted effect of over 55% in size
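No-CPT arm: Tdp1-/-;hTDP1 DT40 cells (400/well) plus compounds, incubated ≥48 hr at 37 °C. Readout CellTiter-Glo luminescence.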
An asterisk follows results filed as active; ? = inconclusive; / = not tested or not shown; [ ] = remark or other dose. A selection: hits, their analogues and other compounds. The true share with any hit is near 16%. Unless noted, calls follow the shape of the dose curve; as a rule, active = well fitted curve in the direction sought with a large enough effect; inconclusive = small, poorly fitted or top-dose-only effect, or another doubt; inactive = no such curve, though single readings can be large; an effect the other way counts as inactive or inconclusive.

molecule,uPA generation,TDP1 block,miR-21 reporter,TDP1 cell CPT,TDP1 cell noCPT
O=C1N(Cc2cccc(Cl)c2)C[C@@H]2C[C@@H](c3cccn3-c3cccnc3)N3CCC[C@@]123,3%,8%,25%,?,21µM*
COc1ccccc1/C=C/[C@@H]1C[C@H]2CN(Cc3cccc(Cl)c3)C(=O)[C@]23CCCN13,6%,2%,1%,10µM*,21µM*
COc1cccc2c1OCC([C@@H]1C[C@H]3CN(Cc4cccc(Cl)c4)C(=O)[C@]34CCCN14)=C2,0%,0%,7%,16µM*,?
O=C(c1cnc(N2CCN(c3ncccn3)CC2)c2ccccc12)N1CCN(c2ccccn2)CC1,-3%,3%,?,?,?
Cc1ccc(NC(=O)c2cnc(N3CCN(c4ccccn4)CC3)c3ccccc23)c(Br)c1,-5%,4%,?,15µM*,13µM*
O=C(Nc1c(F)cccc1F)c1cnc(N2CCN(c3ccccn3)CC2)c2ccccc12,-6%,1%,?,23µM*,23µM*
COc1cccc(/C=N/N(C)C2=NS(=O)(=O)c3ccccc32)c1O,7%,/,-1%,?,-24%
CCC(C(=O)OC)n1cnc2scc(-c3ccc(C)c(C)c3)c2c1=O (stereo unspecified),-8%,/,-3%,?,?
Cc1c(Nc2cc(Cl)c3nonc3c2[N+](=O)[O-])c(=O)n(-c2ccccc2)n1C,28%,-1%,?,1.3µM*,2.1µM*
O=[N+]([O-])c1c(Nc2cccc(O)c2)cc(Cl)c2nonc12,-12%,/,?,1.8µM*,1.8µM*
Oc1ccc(Br)cc1/C=N/n1cnc2ccccc21,/,4%,-42%,?,-30%
Cc1cc(OCC(=O)Nc2ccc(Br)cc2)cc2c1C(=O)CC(C)(C)O2,-3%,-2%,23%,29µM*,23µM*
CC(=O)Nc1ccc(NC(=O)COc2cc(O)c3c(c2)OC(C)(C)CC3=O)cc1,-8%,/,-26%,?,?
CC(=O)Nc1ccc(Nc2cc(C)nc3c(-c4ccccc4)cnn23)cc1,3%,1%,10%,?,16µM*
NC(=S)N/N=C/c1ccc(-c2cc(Cl)cc(Cl)c2)o1,-4%,6%,-3%,5.8µM*,2.1µM*
NC(=S)N/N=C/c1ccc(-c2cc(Cl)ccc2Cl)o1,0%,5%,11%,2.6µM*,3.3µM*
CC(C)c1ccc2c(c1)NC(c1ccc(F)cc1)=NC(c1cccs1)=N2,/,12%,0%,?,?
CC(C)n1nnnc1C1c2ccccc2C(=O)N1CCCN1CCOCC1 (stereo unspecified),/,/,/,11%,-27%
Cn1c(=O)c2c(SCC(=O)Nc3nccs3)nc(C3CC3)nc2n(C)c1=O,1%,1%,0%,23µM*,18µM*
CC(=O)c1ccc(NC(=O)CSc2nc(C3CCCC3)nc3c2c(=O)n(C)c(=O)n3C)cc1,/,5%,-1%,5.2µM*,5.2µM*
CCCn1c(=O)n(C)c(=O)c2c(SCc3cc(C(C)=O)ccc3OCC)nc(C3CC3)nc21,2%,/,/,21µM*,26µM*
Cn1c(=O)c2c(SCC(=O)N3CCOCC3)nc(C3CCCCC3)nc2n(C)c1=O,/,-6%,0%,/,/
Cn1c(=O)c2c(SC3CCCC3)nc(C3CC3)nc2n(C)c1=O,0%,4%,-2%,?,21µM*
CCOc1ccc(C(C)=O)cc1CSc1nc(C)cc(C)n1,-1%,0%,-1%,?,7%
Cc1cc(C)c[n+](-c2[nH]c(=O)sc2/C=N/N=C(\[O-])c2cccnc2)c1,3%,/,1%,-7%,24%
Cn1c(=O)c(=O)n(C)c2cc(S(=O)(=O)N3CCC(N4CCCCC4)CC3)ccc21,-2%,/,/,2%,-5%
COc1ccc(COC(=O)N/N=C2/C[C@@H](O)[C@@H](O)[C@@H]3[C@@H]4C(=O)N(C[C@@H]5CCCO5)C(=O)[C@H]4CC[C@H]23)cc1,/,6%[21 µM],/,/,/
CCOc1ccccc1N(C)C(=O)c1cc(S(=O)(=O)NCc2ccc(C)cc2)ccc1F,/,3%,?,18µM*,21µM*
CCOc1ccccc1N(C)C(=O)c1cc(S(=O)(=O)NCCc2ccc(Cl)cc2)ccc1F,/,0%,24%,?,?
C=CC1C(N2CCOCC2)C(C)(C)S1(=O)=O (stereo unspecified),4%,0%,1%,23µM*,?

Random excerpt: 6 records from the list, in no set order.
molecule,uPA generation,TDP1 block,miR-21 reporter,TDP1 cell CPT,TDP1 cell noCPT
Oc1ccc(Br)cc1/C=N/n1cnc2ccccc21,/,4%,-42%,?,-30%
Cn1c(=O)c2c(SCC(=O)N3CCOCC3)nc(C3CCCCC3)nc2n(C)c1=O,/,-6%,0%,/,/
CCOc1ccc(C(C)=O)cc1CSc1nc(C)cc(C)n1,-1%,0%,-1%,?,7%
CC(=O)Nc1ccc(NC(=O)COc2cc(O)c3c(c2)OC(C)(C)CC3=O)cc1,-8%,/,-26%,?,?
O=C(c1cnc(N2CCN(c3ncccn3)CC2)c2ccccc12)N1CCN(c2ccccn2)CC1,-3%,3%,?,?,?
Cn1c(=O)c2c(SCC(=O)Nc3nccs3)nc(C3CC3)nc2n(C)c1=O,1%,1%,0%,23µM*,18µM*

Remaining list, next part.
| Molecule | uPA generation | TDP1 block | miR-21 reporter | TDP1 cell CPT | TDP1 cell noCPT |
| --- | --- | --- | --- | --- | --- |
| Cc1[nH][nH]c(=O)c1C(c1ccc(F)cc1)c1c(C)[nH][nH]c1=O | -8% | / | -2% | -16% | ? |
| CCN(CC)c1ccc(/C=C/c2cc(Cl)nc3ccccc23)cc1 | / | / | / | ? | 16µM* |
| O=C(c1cc(Cl)nc2ccccc12)N1CCCCC1 | -8% | 3% | -8% | -22% | -12% |
| Nc1ccc(/C=C/c2cc(Cl)nc3ccccc23)cc1 | / | / | / | 4µM* | 4µM* |
| CN(C)c1ccc(/C=C/c2cc(Cl)nc3ccccc23)cc1 | / | / | / | ? | -29% |
| CC(COc1ccc(/C=C/c2ccccc2)cc1)[N+](C)(C)C (stereo unspecified) | ? | / | / | 4.1µM* | 3.3µM* |
| c1cc2c3c(cccc3c1)NC1(CCC3(CC1)Nc1cccc4cccc(c14)N3)N2 | -1% | 11% | 29% | 9.2µM* | 13µM* |
| c1cc2c3c(cccc3c1)NN=N2 | -6% | / | / | ? | ? |
| S=C1NC2(CCCCC2)NN1c1ccccc1 | -1% | 8% | -25% | 23% | ? |
| c1cc2c3c(cccc3c1)NC1(CCCCCC1)N2 | 1% | -6% | -3% | ? | 12µM* |
| c1cc2c3c(cccc3c1)NC1(CCCCC1)N2 | -2% | 4% | 2% | 18µM* | 18µM* |
| N#Cc1nc(-c2ccco2)oc1N1CCN(c2cccc(Cl)c2)CC1 | 1% | 8% | -8% | ? | -28% |
| Cc1cccc(C)c1NC(=O)CNC(=O)c1c(C)nn(-c2ccccc2)c1Cl | 3% | -5% | / | -4% | 0% |
| CC(Sc1nccn1C)C(=O)Nc1ccc(C(N)=O)cc1 (stereo unspecified) | 4% | 0% | / | -7% | -5% |
| CC(C)(C)OC(=O)NC(CNCc1ccccc1)Cc1ccccc1 (stereo unspecified) | -1% | -6% | / | 13µM* | ? |
| O=C(NCc1nnnn1-c1ccc(F)cc1)c1ccc2ccccc2c1 | / | / | / | -3% | ? |
| CCOC(=O)N1CCN(C(=O)c2ccc(N3CC4CC(C3)c3cccc(=O)n3C4)c(NC(=O)c3ccc(F)cc3)c2)CC1 (stereo unspecified) | 3% | 2% | -5% | -20% | 10% |
| Cc1cccc(-c2cc(C(=O)Nc3c(C)n(C)n(-c4ccccc4)c3=O)c3ccccc3n2)c1 | -2% | 5% | 5% | 26µM* | 15µM* |

Compound activity from PubChem.
